Data from ChEMBL document CHEMBL1136757 (J Med Chem, 2003).

Test: In vitro inhibitory activity against sorbitol dehydrogenase (SD) from sheep liver; Not active; call rule not given here

## Cc1ccc(CN2C(=O)C(C(C#N)C(=O)O)c3cc(F)ccc32)cc1 (stereo unspecified)
  IC50: Not Active
